Reference: ChEMBL document CHEMBL1152222, “Effect of B-ring substitution pattern on binding mode of propionamide selective androgen receptor modulators” (Bioorg Med Chem Lett, 2008)

Target: T1, Androgen receptor (Rattus norvegicus, UniProt P15207)
T1 sequence (P15207 whole entry): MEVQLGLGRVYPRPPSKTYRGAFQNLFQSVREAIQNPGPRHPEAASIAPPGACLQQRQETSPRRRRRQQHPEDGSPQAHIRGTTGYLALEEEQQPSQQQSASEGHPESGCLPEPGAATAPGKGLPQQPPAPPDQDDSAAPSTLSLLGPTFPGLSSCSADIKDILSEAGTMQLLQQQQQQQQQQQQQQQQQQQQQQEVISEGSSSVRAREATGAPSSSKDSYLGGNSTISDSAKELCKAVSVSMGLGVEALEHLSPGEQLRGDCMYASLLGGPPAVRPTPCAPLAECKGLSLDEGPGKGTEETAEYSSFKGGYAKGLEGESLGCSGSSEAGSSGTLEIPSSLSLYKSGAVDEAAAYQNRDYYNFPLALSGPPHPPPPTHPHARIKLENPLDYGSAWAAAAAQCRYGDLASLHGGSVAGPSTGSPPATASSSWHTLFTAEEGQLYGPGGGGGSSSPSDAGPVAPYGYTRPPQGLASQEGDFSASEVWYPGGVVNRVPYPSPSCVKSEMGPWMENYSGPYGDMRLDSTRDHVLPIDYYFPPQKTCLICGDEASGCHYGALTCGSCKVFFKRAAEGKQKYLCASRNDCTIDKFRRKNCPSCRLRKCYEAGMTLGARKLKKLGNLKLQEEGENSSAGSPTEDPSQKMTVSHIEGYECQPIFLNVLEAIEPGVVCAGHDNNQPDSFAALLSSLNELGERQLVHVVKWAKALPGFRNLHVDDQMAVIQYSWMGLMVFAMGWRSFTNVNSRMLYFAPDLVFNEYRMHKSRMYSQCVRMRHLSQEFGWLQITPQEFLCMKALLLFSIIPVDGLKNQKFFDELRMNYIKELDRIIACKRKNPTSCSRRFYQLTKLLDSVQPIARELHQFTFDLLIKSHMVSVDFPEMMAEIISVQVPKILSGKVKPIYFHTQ

Q: For CC(=O)Nc1ccc(OC[C@@](C)(O)C(=O)Nc2ccc([N+](=O)[O-])c(C(F)(F)F)c2)cc1, which Ki is on record?
A: 4 nM
